Laboratory results from publication PMC11613347, “A Glucose-Responsive Glucagon-Micelle for the Prevention of Hypoglycemia” (ACS Central Science, 2024).

Assays:
[1] = conjugate versus unconjugated polymer, variable-temperature UV-Vis
[2] = 37 °C

PEG-b-P(NIPAM-stat-2-APBA)-GCG [Polymer P4-GCG]
cloud point lower than that of the polymer alone [1]: 2.5 °C
self-assembly state by DLS ([2]; absence of glucose): self-assembled into micelles
hydrodynamic diameter (Dh) of micelles ([2]; DLS, without any glucose addition): 119.6 nm
